An excerpt weighted towards active compounds, which were near 1.8% of everything screened.
Yeast UUG start: modulators of yeast start codon fidelity, primary screen, whole organism, S. cerevisiae, single point, plate reader; S. cerevisiae UUG-firefly luciferase reporter, luminescence/redox ratio; activity score, % at 18.7 µM; actives 0.13% (n = 350,000);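 active means replicate mean at a twofold rise or more, about +100% in these data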;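 further: firefly luciferase made from a UUG start codon reports start codon fidelity; reporter light over untreated wells divided by growth signal over untreated wells; some hits fall short of that in this replicate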
AF4-AF9 inh: MLL-AF4/AF9 protein interaction inhibition. P42568. 350,000 compounds, 0.47% hits. AlphaScreen, biotin-AF4 peptide binding to FLAG-AF9. inhibition, % at 10 µM;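 active = every replicate reaching a set inhibition limit, whatever the replicate mean, cut at about 25% in these data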;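 note: 0% = plate neutral control median and 100% = total signal loss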
E-selectin induc: induces E-selectin expression in human endothelial cells. activation, % at 7.58 µM. HUVEC E-selectin immunofluorescence imaging; normalized: neutral wells 0, TNF-alpha wells 100. 260,000 compounds, 0.37% hits;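 active = mean E-selectin-positive cell signal at least 10% of the positive control, reached in at least 60% of replicates, without over 20% cell loss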
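material = human umbilical vein endothelial cells (HUVEC), E-selectin induction | quantity = 3,000 cells/well | medium = EGM-2 growth medium on 0.1% gelatin-coated wells | technique = immunofluorescence imaging | read-out basis = % PE-positive cells | control set = TNF-alpha positive control, DMSO neutral control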
RAD54 branch: inhibitors of human RAD54 branch migration. Q92698. inhibition, % at 10.4 µM. AID 602329. 360,000 compounds, 0.14% hits. RAD54 Holliday junction branch migration, FAM/BHQ fluorescence;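 active = mean normalized replicate activity at least 40 and at least half of replicates scoring 40 or more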;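 note: 0% = median of neutral control wells and 100% = median of positive control wells; inhibitors cause a drop in the FAM fluorescence signal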
RAD52 inh: inhibitors of human RAD52 DNA annealing; P43351; recombinant RAD52 DNA annealing, FRET fluorescence; inhibition, % at 18.7 µM; 360,000 compounds, 0.46% hits; AID 651710;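 active = every replicate showing at least 50% inhibition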
SIRT5 block: blocks human SIRT5 desuccinylation of peptide | inhibition, % at 15 µM | Purified SirT5, succinyl-peptide AMC, trypsin-coupled fluorescence | Q9NXA8 | 330,000 compounds, 1.1% hits; in the data active = inhibition above about 15%
* marks the source's active call; other numbers are inactive results; nt = not tested or not shown.

cpd | smiles | Yeast UUG start | AF4-AF9 inh | E-selectin induc
1 | O=C1CN(/N=C/c2ccc([N+](=O)[O-])o2)C(=O)N1 | -9 | 25* | 0
2 | O=C1OCCN1/N=C/c1ccc([N+](=O)[O-])o1 | -4 | -6 | 2
3 | C[C@H]1CN([C@@H](C)CO)C(=O)c2cc(NS(=O)(=O)c3cn(C)cn3)ccc2O[C@@H]1CN(C)S(=O)(=O)c1cccs1 | -4 | 0 | 0
4 | CCOc1ccc(Cl)cc1CNCCCSc1nc(C)cc(C)n1 | -11 | 8 | nt
5 | O=C(N[C@@H]1C=C[C@H](CC(=O)N2CCc3ccccc3C2)O[C@H]1CO)C1CC1 | nt | 0 | 0
6 | CCOC(=O)CCCCC(=O)c1[nH]c(=O)[nH]c1CN1CCOCC1 | 7 | 85* | nt
7 | CN(C)CCCNC(=O)C[C@@H]1CC[C@@H]2[C@H](COC[C@@H](O)CN2S(=O)(=O)c2ccc(Cl)cc2)O1 | nt | nt | 0
8 | Cc1ccccc1OCC(O)CN1CCN(CC(O)COc2ccccc2C)CC1 (stereo not given) | nt | 4 | 4
9 | Cc1ccccc1OCC(O)Cn1c(Br)nc2c1c(=O)[nH]c(=O)n2C (stereo not given) | nt | -1 | -2
10 | Cc1ccccc1OCC(O)Cn1c(Br)nc2c1c(=O)n(C)c(=O)n2C (stereo not given) | -1 | 0 | 51*
11 | C[C@H](CO)N1C[C@H](C)[C@@H](CN(C)Cc2ccccc2)Oc2ccc(NC(=O)CCC(F)(F)F)cc2C1=O | -12 | -2 | 1
12 | COCC(=O)Nc1ccc2c(c1)C(=O)N(C)C[C@@H](OC)[C@@H](C)CN[C@@H](C)CO2 | nt | nt | 0

cpd | RAD54 branch | RAD52 inh | SIRT5 block
1 | -5 | -47 | 3
2 | -7 | -29 | -1
3 | 0 | -12 | 4
4 | -3 | 0 | 20*
5 | 1 | 4 | -2
6 | 7 | -12 | 1
7 | 6 | nt | nt
8 | nt | -6 | 30*
9 | nt | -7 | -5
10 | -1 | 5 | -2
11 | -5 | 1 | -3
12 | 13 | nt | nt

More structures follow.
cpd | smiles | Yeast UUG start | AF4-AF9 inh | E-selectin induc
13 | COC(=O)C[C@@H]1C[C@H]2c3cc(NC(=O)Nc4ccccc4)ccc3O[C@H]2[C@@H](CO)O1 | nt | 1 | 0
14 | CO[C@H]1CN(C)C(=O)c2ccc(NC(=O)Nc3ccc(C(F)(F)F)cc3)cc2OC[C@H](C)NC[C@H]1C | 13 | -2 | 0
15 | COc1cccc(NC(=O)Nc2ccc3c(c2)OC[C@H](C)NC[C@@H](C)[C@@H](OC)CN(C)C3=O)c1 | 7 | 13 | 0
16 | CN(C)CC(=O)Nc1ccc2c(c1)[C@@H]1C[C@@H](CC(=O)NCCc3ccccc3)O[C@@H](CO)[C@@H]1O2 | 15 | 0 | 0
17 | CCOC(=O)N1CCN(CC(=O)Nc2sc(CC)cc2C(=O)c2ccc(OC)cc2)CC1 | -14 | 27* | 0
18 | O=C(O)c1ccc(-c2ccc(/C=C3\NC(=O)N(Cc4ccc(Cl)cc4)C3=O)o2)cc1Cl | 3 | -7 | nt
19 | O=C(NC1CCCC1)N1CC(=O)N2[C@H](CO)[C@@H](c3ccc(/C=C/c4ccccc4)cc3)[C@@H]2C1 | nt | 8 | 0
20 | O=C(NC1CCCCC1)N1CC(=O)N2[C@@H](CO)[C@@H](c3ccc(-c4cccnc4)cc3)[C@@H]2C1 | nt | -3 | 0
21 | O=C(NC1CCCC1)N1CCCCN2[C@H](C1)[C@@H](c1ccc(/C=C/c3ccccc3)cc1)[C@@H]2CO | -6 | 9 | -1
22 | O=C(NC1CCCC1)N1CC(=O)N2[C@H](C1)[C@@H](c1ccc(/C=C/c3ccccc3)cc1)[C@@H]2CO | nt | 25* | 1
23 | O=C(NC1CCCC1)N1CCCCN2[C@H](C1)[C@H](c1ccc(/C=C/c3ccccc3)cc1)[C@@H]2CO | 3 | 2 | -1
24 | O=C(NC1CCCC1)N1CCCCN2[C@H](CO)[C@@H](c3ccc(/C=C/c4ccccc4)cc3)[C@@H]2C1 | -4 | 6 | 19

cpd | RAD54 branch | RAD52 inh | SIRT5 block
13 | 5 | -8 | 3
14 | 7 | 37 | 15*
15 | -6 | 74* | 0
16 | -5 | 1 | -2
17 | 0 | -7 | 2
18 | -2 | -130 | 26*
19 | nt | -15 | 1
20 | nt | 61* | 3
21 | -3 | 3 | 16*
22 | nt | 1 | 2
23 | -8 | 20 | 28*
24 | -4 | 19 | 1

2 of these compounds, set out differently:
16) CN(C)CC(=O)Nc1ccc2c(c1)[C@@H]1C[C@@H](CC(=O)NCCc3ccccc3)O[C@@H](CO)[C@@H]1O2
  Yeast UUG start = 15; AF4-AF9 inh = 0; E-selectin induc = 0; RAD54 branch = -5; RAD52 inh = 1; SIRT5 block = -2

14) CO[C@H]1CN(C)C(=O)c2ccc(NC(=O)Nc3ccc(C(F)(F)F)cc3)cc2OC[C@H](C)NC[C@H]1C
  Yeast UUG start = 13; AF4-AF9 inh = -2; E-selectin induc = 0; RAD54 branch = 7; RAD52 inh = 37; SIRT5 block = 15*

Entries listed so far containing fluorine (2):
cpd | smiles | Yeast UUG start | AF4-AF9 inh | E-selectin induc
11 | C[C@H](CO)N1C[C@H](C)[C@@H](CN(C)Cc2ccccc2)Oc2ccc(NC(=O)CCC(F)(F)F)cc2C1=O | -12 | -2 | 1
14 | CO[C@H]1CN(C)C(=O)c2ccc(NC(=O)Nc3ccc(C(F)(F)F)cc3)cc2OC[C@H](C)NC[C@H]1C | 13 | -2 | 0

cpd | RAD54 branch | RAD52 inh | SIRT5 block
11 | -5 | 1 | -3
14 | 7 | 37 | 15*

Remaining list, next part
cpd | smiles | Yeast UUG start | AF4-AF9 inh | E-selectin induc
25 | CCNC(=O)C[C@H]1CC[C@H](NC(=O)C2CCC2)[C@H](CO)O1 | 20 | -1 | 0
26 | COc1ccc2c3c([nH]c2c1)[C@@H](CO)N(C(=O)c1cccc(F)c1)CC31CN(C(=O)c2ccccc2)C1 | nt | 0 | -1
27 | COc1ccc2c3c([nH]c2c1)[C@@H](CO)N(C(=O)C1CCC1)CC31CN(S(C)(=O)=O)C1 | nt | -14 | 0
28 | COc1ccccc1CNC(=O)C[C@@H]1C[C@@H]2c3cc(NC(=O)Nc4ccccc4F)ccc3O[C@@H]2[C@@H](CO)O1 | -9 | 2 | 0
29 | C[C@H]1CN([C@@H](C)CO)C(=O)c2cc(NC(=O)NC3CCCCC3)ccc2O[C@@H]1CN(C)CC1CCCCC1 | -2 | 0 | nt
30 | O=C(c1cccnc1)N1CC(=O)N2[C@H](CO)[C@@H](c3ccc(/C=C/c4ccccc4)cc3)[C@H]2C1 | nt | 27* | 0
31 | O=C(c1cnccn1)N1CC(=O)N2[C@H](CO)[C@@H](c3ccc(C4=CCCCC4)cc3)[C@@H]2C1 | nt | 4 | 0
32 | O=C(O)c1cc(-c2ccc(/C=N/NC(=S)Nc3ccccc3)o2)ccc1Cl | nt | -1 | nt
33 | C[C@H](CO)N1C[C@H](C)[C@H](CN(C)C(=O)Nc2cccc3ccccc23)Oc2ccc(NC(=O)Nc3cccc4ccccc34)cc2CC1=O | -15 | nt | 1
34 | C[C@H]1CN([C@@H](C)CO)C(=O)Cc2cc(NC(=O)Nc3cccc4ccccc34)ccc2O[C@@H]1CN(C)C(=O)Nc1ccc(C(F)(F)F)cc1 | 3 | 3 | 55*
35 | C[C@@H]1CN([C@H](C)CO)C(=O)Cc2cc(NC(=O)Nc3cccc4ccccc34)ccc2O[C@@H]1CN(C)C(=O)Nc1ccc(C(F)(F)F)cc1 | -1 | 0 | 1
36 | C[C@@H]1CN([C@H](C)CO)C(=O)Cc2cc(NC(=O)Nc3cccc4ccccc34)ccc2O[C@@H]1CN(C)C(=O)Nc1cccc2ccccc12 | -15 | -1 | 1

cpd | RAD54 branch | RAD52 inh | SIRT5 block
25 | 0 | -8 | -1
26 | nt | 20 | nt
27 | nt | 1 | 5
28 | -6 | 8 | -2
29 | 5 | 9 | 1
30 | nt | -30 | 6
31 | nt | -16 | 28*
32 | nt | -26 | 16*
33 | 2 | -5 | -3
34 | 2 | 12 | 0
35 | 0 | 4 | 0
36 | 9 | 11 | 16*

More structures.
cpd | smiles | Yeast UUG start | AF4-AF9 inh | E-selectin induc
37 | O=C(C[C@@H]1C=C[C@H](NC(=O)Nc2cc(F)ccc2F)[C@H](CO)O1)NCc1ccccn1 | -10 | -1 | 0
38 | Cc1cccc(S(=O)(=O)N2C[C@H](O)COC[C@@H]3O[C@H](CC(=O)Nc4ccc(-c5ccccc5)cc4)CC[C@H]32)c1 | nt | 2 | 0
39 | CCOC(=O)Cc1csc(NC(=O)/C=C/c2cccc(Br)c2)n1 | -9 | -1 | 0
40 | CCOC(=O)Cc1csc(NC(=O)c2ccc(C)cc2)n1 | nt | 0 | 7
41 | CCOC(=O)Cc1csc(NC(=O)/C=C/c2ccc(Br)o2)n1 | -3 | 33* | 0

cpd | RAD54 branch | RAD52 inh | SIRT5 block
37 | 7 | -22 | -1
38 | 8 | 4 | 1
39 | 4 | 1 | -1
40 | nt | -12 | 3
41 | 4 | -44 | -1

Individual results from the list:
Reading for no. 8 under RAD52 inh: -6
Reading for no. 32 under AF4-AF9 inh: -1

Screens as filed in PubChem.
